Experimental data published in article PMC5908301, “Small molecule CXCR4 antagonists block the HIV-1 Nef/CXCR4 axis and selectively initiate the apoptotic program in breast cancer cells” (Oncotarget, 2018).

Sequences of proteins named here, by UniProt entry; tags and fusion partners are left off.
UniProt P61073, whole entry: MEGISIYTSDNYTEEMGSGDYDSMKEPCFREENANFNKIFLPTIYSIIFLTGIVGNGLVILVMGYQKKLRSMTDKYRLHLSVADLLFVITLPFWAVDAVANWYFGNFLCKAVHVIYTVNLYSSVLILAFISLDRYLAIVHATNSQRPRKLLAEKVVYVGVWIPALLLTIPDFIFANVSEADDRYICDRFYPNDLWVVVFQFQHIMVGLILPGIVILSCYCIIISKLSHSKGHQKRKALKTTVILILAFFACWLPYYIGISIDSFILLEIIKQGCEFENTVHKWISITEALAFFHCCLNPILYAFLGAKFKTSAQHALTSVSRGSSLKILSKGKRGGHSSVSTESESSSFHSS

What was measured:
CXCR4 = CXCR4 (Homo sapiens, UniProt P61073); test: Inhibition of SDF-1α-mediated calcium flux in CXCR4-expressing CEM cells; format: cell-based; set-up: CXCR4-expressing CEM cells; endogenous in cells; host or cells: CEM cells; conditions: 5 nM recombinant human SDF-1α; read-out: CEM SDF-1 Ca2+ Flux IC50
MDA-MB-231 cells = test: Mitochondrial depolarization of MDA-MB-231 breast cancer cells (JC-1 stain)
HIV-1IIIB = test: MAGI antiviral (entry) assay with HIV-1IIIB in HeLa-derived MAGI-CCR5/CXCR4 cells; format: cell-based; conditions: Human immunodeficiency virus 1, MAGI, read-out: HeLa HIV-1IIIB MAGI IC50

c1ccc(CNCCCCN(C[C@H]2Cc3ccccc3CN2)[C@H]2CCCc3cccnc32)nc1 [Compound 2]
IC50 (CXCR4): 1 nM
Depolarization (%) (MDA-MB-231 cells; Figure 8A, JC-1 staining): 95%
EC50 (MDA-MB-231 cells; Homo sapiens, MDA-MB-231, 24 h, read-out: MDA-MB-231 Depolarization EC50): 0.37 nM
IC50 (HIV-1IIIB): 120 nM
